Measurements from US20020192161A1, “Animal model for evaluating analgesics” (priority 2001, published 2002).

Experiment: Bioavailability of oral ibuprofen formulations in vagal-suppressed (propantheline-treated, Pain Model) rats
Assay type: in vivo, Sprague-Dawley rats
Details: 20 mg/kg ibuprofen oral as crushed tablets
Description: The animal models are Adult male Sprague-Dawley rats with body weight of 250-300 g, and which were cared for in accordance with the principles and guidelines of the Canadian Council of Animal Care. All rats were catheterized in the right jugular vein for sample collection.
An animal model having suppressed vagal properties were produced by administering (intraperitoneal injection) to the rats two 20 mg/kg doses of propantheline (test, n=6), an anticholinergic agent with known vagal suppressive properties, the first dose at 2 hours prior to administration of an NSAID, and the second at 1 hour prior.
The tablets were crushed gently and small pieces were administered into the stomach via a plastic tube followed by 0.5 mL tap water. […] They had free access to water.

## CC(C)Cc1ccc(C(C)C(=O)O)cc1 (racemic) [ibuprofen, (±)-2-(4-Isobutylphenyl)propionic acid]
  AUC (0-1): 12.2 μg/h/mL^−1
